Source: patent EP0900076B1, “TRANSDERMAL DEVICE” (priority 1996, dated 1997)
Marks after values point to notes of the source that are not given here.

How the values were obtained:
[1] = plasma hydromorphone, Predose
[2] = clinical; conditions: human, in vivo, 30 mg
[3] = Mean±sd, plasma hydromorphone, 4 patients
[4] = Subject 1, plasma hydromorphone
[5] = Subject 2, plasma hydromorphone
[6] = Subject 3, plasma hydromorphone
[7] = fourth subject (head empty), plasma hydromorphone

SMILES: CN1CC[C@]23c4c5ccc(O)c4O[C@H]2C(=O)CC[C@H]3[C@H]1C5 [Hydromorphone]
- Concentration, Subject 1 [1]: 0 ng/mL
- Concentration, Subject 3 [1]: 0 ng/mL
- Concentration, fourth subject (head empty) [1]: 0 ng/mL
- Concentration, Subject 2 ([1]; sample contains interference at the retention time of hydromorphone): 1.19* ng/ml
- concentration at 1 h [2, 3]: 3.93 ± 1.91 ng/mL
- concentration at 2 h [2, 3]: 4.59 ± 1.71 ng/mL
- concentration at 3 h [2, 3]: 4.78 ± 1.36 ng/mL
- concentration at 4 h [2, 3]: 5.65 ± 3 ng/mL
- concentration at 1 h [2, 4]: 2.38 ng/mL
- concentration at 2 h [2, 4]: 2.59 ng/mL
- concentration at 3 h [2, 4]: 3.84 ng/mL
- concentration at 4 h [2, 4]: 2.71 ng/mL
- concentration at 1 h [2, 5]: 6.71 ng/mL
- concentration at 2 h [2, 5]: 6.48 ng/mL
- concentration at 3 h [2, 5]: 6.47 ng/mL
- concentration at 4 h [2, 5]: 9.7 ng/mL
- concentration at 1 h [2, 6]: 3.46 ng/mL
- concentration at 2 h [2, 6]: 3.63 ng/mL
- concentration at 3 h [2, 6]: 3.53 ng/mL
- concentration at 4 h [2, 6]: 4.28 ng/mL
- concentration at 1 h [2, 7]: 3.17 ng/mL
- concentration at 2 h [2, 7]: 5.66 ng/mL
- concentration at 3 h [2, 7]: 5.27 ng/mL
- concentration at 4 h [2, 7]: 5.9 ng/mL
